Reference: PMC9913351, “Computational Approach to Drug Penetration across the Blood-Brain and Blood-Milk Barrier Using Chromatographic Descriptors” (Cells, 2023)

The chains behind the UniProt entries cited, without tags or fusion partners. Residues count along the entry.
UniProt P02769, 25-607: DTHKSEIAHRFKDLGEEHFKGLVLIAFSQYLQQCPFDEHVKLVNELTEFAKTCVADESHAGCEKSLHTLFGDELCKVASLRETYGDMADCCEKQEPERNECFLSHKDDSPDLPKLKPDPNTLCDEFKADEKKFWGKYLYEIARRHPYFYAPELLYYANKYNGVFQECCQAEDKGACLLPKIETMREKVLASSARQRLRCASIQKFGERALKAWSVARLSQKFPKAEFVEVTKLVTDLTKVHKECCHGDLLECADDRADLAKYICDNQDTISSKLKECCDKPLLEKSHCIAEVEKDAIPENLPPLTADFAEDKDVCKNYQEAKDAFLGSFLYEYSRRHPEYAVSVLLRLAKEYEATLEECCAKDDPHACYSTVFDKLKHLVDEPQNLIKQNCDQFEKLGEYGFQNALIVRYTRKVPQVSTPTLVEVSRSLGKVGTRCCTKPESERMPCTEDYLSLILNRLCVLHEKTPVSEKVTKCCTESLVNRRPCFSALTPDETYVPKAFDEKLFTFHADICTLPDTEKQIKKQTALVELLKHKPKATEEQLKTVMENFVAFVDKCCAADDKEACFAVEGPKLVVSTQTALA

Experiments:
bovine serum albumin BSA [1] = target: T1, bovine serum albumin BSA (Bos taurus, UniProt P02769); test: NP TLC on silica gel plates impregnated with bovine serum albumin; type: in vitro ADME; settings: Rf from BSA-modified NP plate / Rf from clear one (control)
T1 construct: purchased Sigma Aldrich

bovine serum albumin BSA [2] = target: T1, bovine serum albumin BSA; test: RP TLC on silanized RP-2 plates impregnated with bovine serum albumin; type: in vitro ADME; settings: Rf from BSA-modified RP-2 plate / Rf from clear one (control)
[3] = design: method as in earlier work; settings: code describing the acid-base properties; source Chembl; cited from earlier work
Throughout, for a/b/n code: key: (-1) - acids; (0) - neutrals; (1) - bases.

Question: Which results are given for `CO[C@H]1/C=C/O[C@@]2(C)Oc3c(C)c(O)c4c(O)c(c(/C=N/N5CCN(C)CC5)c(O)c4c3C2=O)NC(=O)/C(C)=C\C=C\[C@H](C)[C@H](O)[C@@H](C)[C@@H](O)[C@@H](C)[C@H](OC(C)=O)[C@@H]1C` [rifampicin]?
Answer: NP/C (bovine serum albumin BSA [1]): 1.05; RP/C (bovine serum albumin BSA [2]): 0.99; a/b/n code [3]: -1
